According to patent publication EP0369035A1, “AGENT FOR TREATING PANCREATITIS OR THE LIKE” (priority 1988, dated 1989):

Key:
[1] = in vivo; details: mouse, intravenous, ICR male mice, up-and-down method, read-out: Acute toxicity (LD50)
Method: ICR male mice 5 to 10 weeks old were used. The test substance was dissolved in a 5% dimethylsulfoxide aqueous solution, and the solution was intravenously administered in an amount of 0.1 to 0.2 ml/10 g body weight. An LD50 value was calculated by up-and-down method.

[2] = tested on: experimental pancreatitis; experiment: Effect on experimental pancreatitis (sodium taurochorate + trypsin into the common bile duct), survival ratio; type: in vivo, SD-rats; details: 80 μg/kg/min. x 80 min. continuous infusion, rat
Description: [II] Effect on experimental pancreatitis
SD-rats, body weight of about 200 g were, starved overnight, and 10 to 24 animals were used in one group. Sodium pentobarbital was intraperioneally administered to anesthetize each rat, and then a cannula was inserted to the femoral vein for the administration of the test substance. After abdominal surgery, the bile duct was blocked at a part thereof proximate to the liver, by a clip, a polyethylene tube was inserted to the common bile duct at a part thereof most proximate to the duodenum, and 0.1 ml of solution containing 2 mg sodium taurochorate and 1000 U trypsin dissolved in physiological saline was injected retrogrodely. After removal of the clip and tube, the common bile duct was ligated and the abdomen was closed. Note, the test substance was dissolved in an injective 5% glucose solution, and in the case of a continuous infusion, the solution was administered over 80 minutes starting from 10 minutes before the generation of pancreatitis. In the case of oral administration, the test substance was administered through an oral catheter 30 minutes before the generation of pancreatitis. After 24 hours and 48 hours from the generation of pancreatitis, the survival ratio of the animals was calculated and compared with a control group.

With NCC1CCC(C(=O)NC(Cc2ccccc2)C(=O)Nc2ccc(CC(=O)O)cc2)CC1 (stereo not drawn) [Compound 17] the LD50 [1] was > 100 mg/kg, the “Effect on experimental pancreatitis Survival ratio(%) After 24 hours” value ([2]; after 24 hours) was 46.4% and the “Effect on experimental pancreatitis Survival ratio(%) After 48 hours” value ([2]; after 48 hours) was 37.3%.
